Results as given in patent publication US5496697A, “Methods and apparatus for detecting the effect of cell affecting agents on living cells” (priority 1993, dated 1996).

Sequences of proteins named here, by UniProt entry; tags and fusion partners are left off. A change or cut given only in a name is not applied to a line headed by its entry.
UniProt P08482: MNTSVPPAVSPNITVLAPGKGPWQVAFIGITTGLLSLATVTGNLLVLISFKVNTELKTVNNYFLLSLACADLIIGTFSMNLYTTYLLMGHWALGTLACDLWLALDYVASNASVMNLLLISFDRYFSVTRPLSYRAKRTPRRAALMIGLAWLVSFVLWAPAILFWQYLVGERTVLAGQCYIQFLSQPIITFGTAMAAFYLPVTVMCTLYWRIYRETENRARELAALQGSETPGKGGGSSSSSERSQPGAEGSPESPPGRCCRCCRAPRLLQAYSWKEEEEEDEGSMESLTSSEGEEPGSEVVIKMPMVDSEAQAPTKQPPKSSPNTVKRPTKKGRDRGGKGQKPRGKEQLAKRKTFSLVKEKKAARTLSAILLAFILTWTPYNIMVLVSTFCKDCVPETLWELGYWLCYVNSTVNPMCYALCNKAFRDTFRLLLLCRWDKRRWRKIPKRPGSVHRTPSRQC

What was measured:
[1] = molecular target: T1, rat M1 muscarinic receptor (Rattus norvegicus, UniProt P08482); assay: acidification by M1C-2 cells, protocol with increased temporal resolution; format: cell-based; design: expressed in transfected cells; host or cells: M1C-2 (murine B82 fibroblasts, an L cell derivative, transfected with the rat M1 receptor under the dexamethasone-inducible MMTV promoter; provided by Dr. J. C; Venter, NIH); settings: carbachol
Method: FIGS. 29 and 30 show results obtained with a protocol modified slightly to increase the temporal resolution of the rapid response of the M1C-2 cells to carbachol. Two chambers (one experimental and one control) were assembled with cells and equilibrated as described above,
During an off period, the flow rate was changed from 100 μl/min to 200 μl/min. When the flow resumed, an injection valve was switched to introduce carbachol containing medium into the cell chamber. The flow was stopped after 45 seconds and the acidification of the medium was followed (FIG. 29). The time derivative of the sensor potential (equivalent to pH) was calculated using a 5 point quadratic Savitsky-Golay (1964) algorithm and is shown in FIG. 30. (See Savitsky, A., and Golay, M. (1964) Smoothing and differentiation of data by simplified least squares procedures. Analytical Chem 36:1627-1639 .)
Thus, the rate of acidification can be followed with an improved resolution of ~2 seconds over the period in which the flow is off. […] At this point, flow must be restored and data collection-halted.
The response peak occurred 50-60 seconds after the cessation of medium flow. It should be noted that because a 5 point Savitsky-Golay algorithm was used in the calculations, the first few points are not valid; they include data points during the time of medium flow.

[2] = molecular target: T1, rat M1 muscarinic receptor; assay: metabolic rate of M1C-2 cells (B82 cells transfected with rat M1 muscarinic receptor)
CTLL cells [3] = assay: metabolic rate of CTLL cells immobilized in agarose on a cover slip; format: cell-based, mice
Method: CTLL cells (a cytotoxic T-Cell line from mice) are a nonadherent cell line that requires the presence of Interleukin-2 (IL-2; an immune modulator) to remain viable. Two mL of cells were removed from a confluent T-25 flask of CTLL cells and centrifuged to pellet the cells. The supernatant was discarded and the cells were resuspended in 300 μL of a 2 % agarose solution (in medium). The cells were again centrifuged to a pellet, and a 2 μL aliquot was removed from the cell pellet and spread over an approximate 40 mm^2 circle on a cover slip that was housed in a humidified chamber. The cover slip chamber was then refrigerated for 20 minutes to allow the agarose to gel. The cover slip was removed from the humidified chamber and placed in a flow chamber. Medium containing 20 units/mL of IL-2 or medium only was alternately flowed across the cells. […] At this time, the cells were beginning to detach from the agarose gel. As expected, as the cell density decreased, so did the rate of acidification of the chamber.

CTLL cells [4] = assay: metabolic rate of CTLL cells trapped in wells; format: cell-based, mice
From the text: CTLL cells were trapped in the flow chamber in rectangular wells. Referring to FIG. 25, an array 1 of 1000 μm long, 50 μm wide slots, with 50 μm separation between slots, was cut into a 50 μm thick piece of stainless steel foil 2 with an eximer laser. This was mounted in the 100 μm deep flow chamber under pieces of 50 μm thick plastic 3 arranged to press the foil against the silicon semiconductor electrode surface when the cover slip was mounted. This left a channel about 1 mm wide and 50 μm deep above the slots, thereby forming wells.
CTLL cells were settled into the wells at a linear flow velocity of the medium in the channel of no more than about 15 μm/sec. Alternatively, the wells could be loaded by flowing the medium faster than 15 μm/sec. until the cells were suspended above the wells, and then stopping the flow entirely for approximately 10 seconds while the cells sedimented into the wells. This flow/stop procedure was repeated until sufficient cells were trapped.
The cells remained in the wells for flow rates below approximately 100 μm/sec, above which many were flushed out. Alternatively, momentary inversion of the chamber caused the cells to sediment into the flow stream and be flushed away at lower flow rates.
Metabolic rates of -30 to -60 μV/sec were obtained from CTLL cells. […] This is an indication that the presence of IL-2 can be detected on the time scale of a few hours. […]

[5] = M1C-2 cells, carbachol, FIG. 27

Compound | time of response peak after cessation of medium flow [1] | time of peak [2, 5] | time to steady state level [2, 5] | activation at 3.12 µM ([2]; read-out: increase in metabolic rate at peak) | activation at 10000 µM ([2]; read-out: increase in metabolic rate vs. baseline) | activation at 3.12 µM ([2]; read-out: steady state increase in metabolic rate) | metabolic rate when IL-2 was reintroduced (CTLL cells [3]; 20 units/mL IL-2) | metabolic rate when IL-2 was removed (CTLL cells [3]; 20 units/mL IL-2 removed, vs. control rate) | metabolic rate after several hours with IL-2, of control value (CTLL cells [4]; IL-2 20 U/ml) | metabolic rate after several hours without IL-2, of control value (CTLL cells [4]; IL-2 withdrawn)
C[N+](C)(C)CCOC(N)=O [carbachol] | 50 to 60 s | approximately 50 seconds | 200 s | 80% | 75% | ~40% | – | – | – | –
IL-2: Interleukin-2 (IL-2 ; an immune modulator) | – | – | – | – | – | – | began to increase | began to decline | over 50% | 20-30%

Like-named read-outs stand apart in the source and are kept apart here.
